In general, IC50 refers to the concentration that gives 50% inhibition.

The structures appear in SMILES notation. A value given as a limit tells only on which side of the number the result lay.

Experiment [1] concerns the target Serine/threonine-protein kinase mTOR (Homo sapiens, UniProt P42345). In words: LanthaScreen Kinase Activity Assay: The enzymatic mTOR activity was measured using a LanthaScreen kinase activity assay (Invitrogen). The enzyme was purchased from Invitrogen (PV4754), as well as the GFP-labelled substrate (4EBP1-GFP; PV4759) and the Tb-antip4EBP1(pThr46) antibody (PV4757). […] After 1 h incubation at room temperature, 20 mM EDTA was used to stop the reaction and terbium-labelled antibody (4 nM) added to detect phosphorylated product. The antibody associates with the phosphorylated product resulting in an increased TR-FRET value.

Experiment [2] has as its target DNA-dependent protein kinase catalytic subunit (Homo sapiens, UniProt P78527). Nature of the experiment: ADP Hunter Plus Assay: The kinase activity was measured by using the commercial ADP Hunter Plus assay available from DiscoveRx (#90-0083), which is a homogeneous assay to measure the accumulation of ADP, a universal product of kinase activity. The enzyme, DNA-PK was purchased from Promega (#V5811). The assay was done following the manufacturer recommendations with slight modifications: Mainly the kinase buffer was replace by 15 mM HEPES, pH 7.5, 10 mM MgCl2, 20 mM NaCl, 1 mM EGTA, 0.1 mg/mL BGG, 0.02% Tween 20. The DNA-PK was assayed in a titration experiment to determine the optimal protein concentration for the inhibition assay. To calculate the […] of the Compounds, serial 1:3 dilutions of the compounds were added to the enzyme at a fixed concentration (2 U/uL). The enzyme was preincubated with the inhibitor and 200 uM DNA substrate and then ATP was added to a final 75 uM concentration. Reaction was carried out for 1 hour at 37° C. Reagent A and B were sequentially added to the wells and plates were incubated for 30 min at RT. Fluorescence counts were read in a EnVision instrument (Perkin Elmer) with the recommended settings (550 and 590 nm as excitation and emission wavelengths, respectively).

For `CS(=O)(=O)C1(c2nc(-c3cccc4[nH]ccc34)nc3c2OCC2COCCN32)CCOCC1` (stereo not given), the values for the IC50 in experiment [1] and in experiment [2] were 2.72 µM and no less than 25 µM, respectively.

`CC(C)(c1nc(-c2cccc3[nH]ccc23)nc2c1OCC[C@H]1COCCN21)S(C)(=O)=O`: in experiment [2], the IC50 is 10 µM.

`CS(=O)(=O)C1(c2nc(-c3cccc4[nH]ccc34)nc3c2OC[C@@H]2COCCN32)CCOCC1` showed an IC50 in experiment [1] of 1.86 µM.

Consider `CS(=O)(=O)C1(c2nc(-c3cccc4[nH]ccc34)nc3c2OC[C@H]2COCCN32)CCOCC1`, for which the IC50 in experiment [2] was 10 µM.

These data come from ChEMBL document CHEMBL3886972, “Chemical entities” (2016).
